68 compounds from PubChem BioAssay AID761 (NMMLSC, 2007) can be followed below.

Sequences of proteins named here, by UniProt entry; tags and fusion partners are left off.
UniProt P60953, whole entry: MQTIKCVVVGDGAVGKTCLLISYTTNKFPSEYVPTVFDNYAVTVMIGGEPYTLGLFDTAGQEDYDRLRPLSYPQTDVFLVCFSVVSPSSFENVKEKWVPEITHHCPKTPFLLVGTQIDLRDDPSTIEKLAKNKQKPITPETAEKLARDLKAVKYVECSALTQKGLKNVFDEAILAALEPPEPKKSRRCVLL

Only a part is listed here, and it is no random draw. The source made the active and inactive calls.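 The calls were made as follows: active = percent activity GTP binding at least 20 points away from the 100% baseline, either down as inhibitor or up as activator; inconclusive = compound flagged as likely green fluorescent from well-wide comparison; inactive = the rest.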

For this assay, the target named is Cell division control protein 42 homolog (Homo sapiens) (UniProt P60953). The experiment in a line: modulators of GTP binding to wildtype Cdc42, primary screen, biochemical, multiplex bead flow cytometry, Bodipy-GTP (AID 761).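 Also: median bead fluorescence of bound Bodipy-FL-GTP at 100 nM; 0% = excess unlabeled GTP control and 100% = no compound control; below 100% means less GTP binding so inhibitor and above means activator.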 Particulars: GST-Cdc42 beads, at 10 µM, actives lie on both sides.
For `CP(=O)(Nc1ccc(SC(F)(F)F)cc1)Oc1ccccc1` (stereo not drawn), the percent activity (GTP binding) is inactive: 99%.

In the case of `CCCOc1ccc(NP(C)(=O)Oc2ccc(Cl)cc2)cc1` (stereo not drawn), the percent activity (GTP binding) is inactive: 95%.

In the case of `COc1ccccc1OP(C)(=O)Nc1c(C)cccc1C` (stereo not drawn), the percent activity (GTP binding) was inactive: 103%.

Take `CN1CCCCC1COC(=O)C1(O)c2ccccc2CCc2ccccc21` (stereo not drawn): the percent activity (GTP binding) is inactive: 105%.

For `O=[N+]([O-])c1cc([N+](=O)[O-])c(-n2nnc3ccccc32)c([N+](=O)[O-])c1`, the percent activity (GTP binding) is inactive: 92%.

Regarding `Cc1nc2ccc3ccccc3c2s1.O=[N+]([O-])c1cc([N+](=O)[O-])c(O)c([N+](=O)[O-])c1`, the percent activity (GTP binding) was inactive: 100%.

Regarding `CCOC(=O)c1ccc(NP(C)(=O)Oc2cc(C)cc(C)c2)cc1` (stereo not drawn), the percent activity (GTP binding) is inactive: 99%.

For `Cc1cc(C)cc(OP(C)(=O)Nc2ccc(C)cc2C)c1` (stereo not drawn), the percent activity (GTP binding) was inactive: 101%.

With `Cc1ccc(C)c(NP(C)(=O)Oc2ccccc2)c1` (stereo not drawn), the percent activity (GTP binding) is inactive: 102%.

On to `CP(=O)(Nc1cccc(Br)c1)Oc1ccccc1` (stereo not drawn), for which the percent activity (GTP binding) was inactive: 96%.

`Cc1cc(C)cc(OP(C)(=O)Nc2ccccn2)c1` (stereo not drawn): the percent activity (GTP binding) was inactive: 98%.

Turning to `CC1=NCCc2c1[nH]c1ccccc21.O=[N+]([O-])c1cc([N+](=O)[O-])c(O)c([N+](=O)[O-])c1`, the percent activity (GTP binding) was inactive: 96%.

With `O=[N+]([O-])c1ccc2c(c1)C=Nc1ccccc1O2`, the percent activity (GTP binding) was inactive: 92%.

Consider `CC(C)(C)c1ccc(OP(C)(=O)Nc2ccc(SC(F)(F)F)cc2)cc1` (stereo not drawn), for which the percent activity (GTP binding) was inactive: 93%.

As to `Cc1cccc(C)c1OP(C)(N)=O` (stereo not drawn), the percent activity (GTP binding) was inactive: 95%.

For `Cc1cc(C)cc(OP(C)(N)=O)c1` (stereo not drawn), the percent activity (GTP binding) was inactive: 100%.

As to `COc1ccccc1OP(C)(=O)Nc1cc(Cl)ccc1C` (stereo not drawn), the percent activity (GTP binding) is inactive: 102%.

Consider `COc1ccc(OP(C)(=O)Nc2cccc(F)c2)cc1` (stereo not drawn), for which the percent activity (GTP binding) is inactive: 98%.

In the case of `COc1ccccc1OP(C)(=O)Nc1ccc(C)cc1` (stereo not drawn), the percent activity (GTP binding) is inactive: 98%.

Regarding `Cc1ccc(NP(C)(=O)Oc2ccccc2)c(C)c1` (stereo not drawn), the percent activity (GTP binding) was inactive: 95%.

`CCOC(=O)c1ccc(NP(C)(=O)Oc2ccccc2)cc1` (stereo not drawn): the percent activity (GTP binding) is inactive: 101%.

Regarding `CCN(CC)CCCOC(=O)C(O)(c1ccccc1)c1ccccc1`, the percent activity (GTP binding) was inactive: 102%.

With `CP(=O)(NC(=O)Nc1ccccc1)Oc1ccccc1` (stereo not drawn), the percent activity (GTP binding) was inactive: 102%.

As to `Cc1cc(C)cc(OP(C)(=O)Nc2ccc(SC(F)(F)F)cc2)c1` (stereo not drawn), the percent activity (GTP binding) is inactive: 95%.

For the compound `Cc1cccc(C)c1OP(C)(=O)Nc1ccc(SC(F)(F)F)cc1` (stereo not drawn), the percent activity (GTP binding) was inactive: 96%.

Take `CP(=O)(Oc1ccccc1)OC(c1ccccc1)C(F)(F)F` (stereo not drawn): the percent activity (GTP binding) was inactive: 99%.

In the case of `CP(=O)(Nc1ccccn1)Oc1ccc(Cl)cc1` (stereo not drawn), the percent activity (GTP binding) is inactive: 94%.

For `CCOC(=O)c1ccc(NP(C)(=O)Oc2ccc(OC)cc2)cc1` (stereo not drawn), the percent activity (GTP binding) is inactive: 102%.

As for `CCOP(C)(=S)SCC(=O)NC(C)C(=O)O` (stereo not drawn), the percent activity (GTP binding) is inactive: 109%.

On to `CP(=O)(Nc1ccccc1Br)Oc1ccccc1` (stereo not drawn), for which the percent activity (GTP binding) was inactive: 106%.

Consider `COc1ccccc1OP(C)(=O)Nc1ccccc1` (stereo not drawn), for which the percent activity (GTP binding) is inactive: 97%.

For the compound `CP(=S)(Nn1cnnc1)Oc1ccccc1` (stereo not drawn), the percent activity (GTP binding) was inactive: 103%.

On to `CCOC(=O)c1ccc(NP(C)(=O)Oc2ccc(Cl)cc2)cc1` (stereo not drawn), for which the percent activity (GTP binding) was inactive: 99%.

For `CP(=O)(OC12CC3CC(CC(C3)C1)C2)OC12CC3CC(CC(C3)C1)C2`, the percent activity (GTP binding) is inactive: 100%.

Consider `CP(=O)(Oc1ccccc1)N1CCOC1=O` (stereo not drawn), for which the percent activity (GTP binding) was inactive: 99%.

For `CCc1ccc(OP(C)(=O)Nc2cccnc2)cc1` (stereo not drawn), the percent activity (GTP binding) was inactive: 93%.

As to `CCN(CC)CC(O)COC(=O)C(O)(c1ccccc1)C1CCCCC1` (stereo not drawn), the percent activity (GTP binding) was inactive: 106%.

Turning to `COc1ccc(OP(C)(=O)Nc2ccc(Br)cc2)cc1` (stereo not drawn), the percent activity (GTP binding) is inactive: 98%.

With `CN(C)C(=O)c1c([N+](=O)[O-])cc([N+](=O)[O-])cc1[N+](=O)[O-]`, the percent activity (GTP binding) was inactive: 95%.

`CC(C)(C)c1ccc(OP(C)(=O)O)cc1`: the percent activity (GTP binding) was inactive: 111%.

Turning to `COc1ccccc1OP(C)(=O)Nc1ccccc1Br` (stereo not drawn), the percent activity (GTP binding) is inactive: 94%.

`CP(=O)(Nc1ccc(Cl)cc1)Oc1ccc(F)cc1` (stereo not drawn): the percent activity (GTP binding) is inactive: 102%.

For the compound `COc1ccc(OP(C)(=O)Nc2ccccn2)cc1` (stereo not drawn), the percent activity (GTP binding) was inactive: 95%.

On to `CN(C)CCOC(=O)C(O)(c1ccccc1)C1CCCC1` (stereo not drawn), for which the percent activity (GTP binding) is inactive: 100%.

For the compound `CP(=O)(Nc1ccccn1)Oc1ccccc1` (stereo not drawn), the percent activity (GTP binding) was inactive: 105%.

As to `COc1ccccc1OP(C)(=O)Nc1ccc(C)cc1C` (stereo not drawn), the percent activity (GTP binding) is inactive: 104%.

In the case of `CCc1ccc(OP(C)(=O)O)cc1`, the percent activity (GTP binding) was inactive: 98%.

With `O=[N+]([O-])c1cc([N+](=O)[O-])c(Nc2ccccn2)c([N+](=O)[O-])c1`, the percent activity (GTP binding) was inactive: 97%.

Regarding `Cc1c(NP(C)(=O)Oc2ccc(C(C)C)cc2)c(=O)n(-c2ccccc2)n1C` (stereo not drawn), the percent activity (GTP binding) was inactive: 101%.

Take `COc1ccccc1OP(C)(=O)Nc1ccc(C)c(C)c1` (stereo not drawn): the percent activity (GTP binding) is inactive: 99%.

With `COc1ccc(OP(C)(=O)Nc2ccccc2Br)cc1` (stereo not drawn), the percent activity (GTP binding) is inactive: 101%.

For the compound `Cc1cc(C)cc(OP(C)(=O)Nc2cccc(C(F)(F)F)c2)c1` (stereo not drawn), the percent activity (GTP binding) was inactive: 100%.

For `CP(=O)(OCCOc1ccccc1)OCCOc1ccccc1`, the percent activity (GTP binding) was inactive: 93%.

`CP(=O)(Nc1ccc(Cl)cc1Cl)Oc1ccccc1` (stereo not drawn): the percent activity (GTP binding) was inactive: 97%.

As to `Cc1nc2ccc3ccccc3c2o1.O=[N+]([O-])c1cc([N+](=O)[O-])c(O)c([N+](=O)[O-])c1`, the percent activity (GTP binding) was inactive: 100%.

Regarding `CCOC(=O)c1ccc(NP(C)(=O)Oc2ccc(F)cc2)cc1` (stereo not drawn), the percent activity (GTP binding) was inactive: 101%.

With `COc1ccc(OP(C)(=O)Nc2ccc(SC(F)(F)F)cc2)cc1` (stereo not drawn), the percent activity (GTP binding) was inactive: 92%.

For the compound `CP(=O)(Nc1ccccc1)Oc1ccc(F)cc1` (stereo not drawn), the percent activity (GTP binding) is inactive: 105%.

In the case of `CCN(CC)CCCOC(=O)C(O)(c1ccccc1)C1CCCCC1` (stereo not drawn), the percent activity (GTP binding) is inactive: 100%.

As to `CP(=O)(Nc1ccccc1F)Oc1ccccc1` (stereo not drawn), the percent activity (GTP binding) is inactive: 97%.

Consider `O=C(OCCN1CCN(CCOCc2ccccc2)CC1)C(O)(c1ccccc1)c1ccccc1`, for which the percent activity (GTP binding) is inactive: 105%.

For `CCOP(C)(=S)SCC(=O)NC(C)(CC)C(=O)O` (stereo not drawn), the percent activity (GTP binding) is inactive: 97%.

`Cc1ccccc1NP(C)(=O)Nc1ccccc1C`: the percent activity (GTP binding) was inactive: 99%.

On to `CP(=O)(Nc1ccc2c(c1)OCCO2)Oc1ccccc1` (stereo not drawn), for which the percent activity (GTP binding) is inactive: 100%.

For the compound `CN(C)CCOC(=O)C(O)(c1ccccc1)C1CCCCC1` (stereo not drawn), the percent activity (GTP binding) is inactive: 101%.

Consider `COc1ccc(NP(C)(=O)Oc2ccccc2OC)cc1` (stereo not drawn), for which the percent activity (GTP binding) was inactive: 97%.

Take `COc1ccc(OP(C)(=O)Nc2cccc(Br)c2)cc1` (stereo not drawn): the percent activity (GTP binding) was inactive: 101%.

On to `O=[N+]([O-])c1cc([N+](=O)[O-])c(NCC2CCS(=O)(=O)C2)c([N+](=O)[O-])c1` (stereo not drawn), for which the percent activity (GTP binding) is inactive: 95%.
